Results as given in ChEMBL document CHEMBL3525990, “Organic anion transporter 3 interacts selectively with lipophilic β-lactam antibiotics” (Drug Metab Dispos, 2013).

Molecular target: T1, Organic anion transporter 3 (Mus musculus, UniProt O88909)
T1 sequence (O88909 whole entry): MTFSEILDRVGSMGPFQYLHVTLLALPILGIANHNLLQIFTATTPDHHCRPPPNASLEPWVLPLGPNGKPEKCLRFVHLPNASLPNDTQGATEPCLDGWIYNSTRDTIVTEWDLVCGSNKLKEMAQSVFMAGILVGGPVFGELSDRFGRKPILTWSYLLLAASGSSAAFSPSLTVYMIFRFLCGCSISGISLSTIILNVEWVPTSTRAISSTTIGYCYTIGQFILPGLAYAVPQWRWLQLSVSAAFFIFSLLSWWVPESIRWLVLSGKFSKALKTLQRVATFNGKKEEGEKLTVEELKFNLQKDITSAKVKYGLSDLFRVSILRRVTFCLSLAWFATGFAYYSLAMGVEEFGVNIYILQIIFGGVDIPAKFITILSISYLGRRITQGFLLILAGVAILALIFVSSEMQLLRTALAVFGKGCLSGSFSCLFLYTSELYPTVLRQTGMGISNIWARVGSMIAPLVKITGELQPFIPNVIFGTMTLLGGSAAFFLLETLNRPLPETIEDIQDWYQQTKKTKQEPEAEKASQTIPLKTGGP
Assay: Inhibition of mouse OAT3 expressed in CHO cells assessed as inhibition of fluorescein uptake at 500 uM over 20 mins relative to untreated-control; call rule not given here
Assay type: ADME, cell-based

CC1=C(C(=O)O)N2C(=O)[C@@H](NC(=O)[C@H](N)c3ccccc3)[C@H]2SC1 [CEPHALEXIN ANHYDROUS]
inhibition (INH): Not Active
